# Assay results as given in PubChem BioAssay AID651965 (National Center for Advancing Translational Sciences (NCATS), 2013).
# Amino acid sequences for entries named in this document (tags omitted).
# UniProt P80244, whole entry: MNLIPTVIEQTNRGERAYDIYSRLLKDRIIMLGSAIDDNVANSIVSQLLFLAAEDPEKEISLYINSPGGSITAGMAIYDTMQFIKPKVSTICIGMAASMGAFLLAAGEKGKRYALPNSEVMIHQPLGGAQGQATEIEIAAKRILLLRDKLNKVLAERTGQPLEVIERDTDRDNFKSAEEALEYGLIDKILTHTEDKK
# This is a selection; strong and weak results do not stand in their true shares. Inconclusive results are not listed. Active and inactive are the calls of the source. The call rests on the fitted dose curve; in most records, active means well fitted falling curve with a large enough effect; inconclusive means small, poorly fitted or top-dose-only effect; inactive means no such curve, though single readings can be large or run the other way.
# Biological target: ATP-dependent Clp protease proteolytic subunit (Bacillus subtilis (strain 168)) (UniProt P80244)
# Test: qHTS Assay for Activators of ClpP; further: the source files actives as falling curves though it sought activators and does not explain the sign; nearly all actives have a fitted effect of over 65% in size
# Settings: purified B. subtilis ClpP, FRET peptide cleavage, 20 min; at 57.5 µM (top of the series)
row,Structure (SMILES),"activity change, negative = active"
1,Cc1nn(-c2ccccc2)c2c1P(=O)(N1CCOCC1)N(C)C(c1ccccc1)=N2 (configuration not stated),inactive: 0.453%
2,Cc1ccc(C(=O)OC2CN3CCC2CC3)cc1 (configuration not stated),inactive: 0.501%
3,COc1cc([N+](=O)[O-])ccc1[N+](=O)[O-],inactive: -0.608%
4,COc1cc(C2NCCC3(OCCO3)C2(C)C)cc(OC)c1OC.O=[N+]([O-])c1cc([N+](=O)[O-])c(O)c([N+](=O)[O-])c1 (configuration not stated),inactive: 1.54%
5,CP(=O)(Nc1ccc(SC(F)(F)F)cc1)Oc1ccccc1 (configuration not stated),inactive: -1.37%
6,Nc1cccc([As](=O)(O)c2ccccc2)c1,inactive: -0.695%
7,Cc1ccc(OCC(=O)OC2CN3CCC2CC3)cc1 (configuration not stated),inactive: 1.45%
8,O=[As](O)(c1cccs1)c1cccs1,inactive: 0.952%
9,O=P1(Nc2ccc(Br)cn2)COc2ccccc2OC1,inactive: -3.11%
10,NS(=O)(=O)c1cccc(NC(=O)COC(=O)C(O)(c2ccccc2)c2ccccc2)c1,inactive: 1.99%
11,COc1ccccc1OP(C)(=O)Nc1c(C)cccc1C (configuration not stated),inactive: -2.19%
12,CN1CCCCC1COC(=O)C1(O)c2ccccc2CCc2ccccc21 (configuration not stated),inactive: -3.57%
13,O=P1(Nc2ncccn2)COc2ccccc2OC1,inactive: 1.39%
14,O=P1(N(CCCl)CCCl)NCCC(C(F)(F)F)O1 (configuration not stated),inactive: -0.457%
15,Clc1n[nH]nc1-c1nn[nH][15n]1,inactive: -0.677%
16,CN(Cc1cccnc1)C(=O)COc1ccc(Cl)c(Cl)c1.O=[N+]([O-])c1cc([N+](=O)[O-])c(O)c([N+](=O)[O-])c1,inactive: 2.53%
17,CC(C)(C)C(=O)NC(Sc1ncccn1)C(Cl)(Cl)Cl (configuration not stated),inactive: 0.214%
18,O=P1(Nc2ccccn2)COc2ccccc2OC1,inactive: -9.29%
19,CCC1=CC2Cc3nc4ccc(Cl)cc4c(N)c3C(C1)C2 (configuration not stated),inactive: -24.5%
20,O=C(O)C(O)c1ccc(N(CCCl)CCCl)cc1.c1ccncc1 (configuration not stated),inactive: -1.7%
21,CCOP(=O)(NC(=NC(C)c1ccccc1)NC(C)c1ccccc1)OCC (configuration not stated),inactive: 0.388%
22,Nc1ccc(CCCCOc2ccccc2)cc1.O=[N+]([O-])c1cc([N+](=O)[O-])c(O)c([N+](=O)[O-])c1,inactive: 1.93%
23,CCOP(=O)(Nc1ccc(C)cn1)OCC,inactive: -29.2%
24,CN(CCCl)Cc1cc(Cl)c(NC2=NCCN2)c(Cl)c1,inactive: -2.44%
25,Cc1ccc(S(=O)(=O)N(CCCN)CCCc2c(C)nc(N)[nH]c2=O)cc1.O=[N+]([O-])c1cc([N+](=O)[O-])c(O)c([N+](=O)[O-])c1,inactive: -2.18%
26,CC(C)/C=N\N=C(\N)N[N+](=O)[O-],inactive: 0.691%

row,Structure (SMILES),"activity change, negative = active"
1,CN(C(=O)Cc1ccc(Cl)c(Cl)c1)[C@@H]1CCCC[C@H]1N1CCCC1,inactive: -3.04%
2,CC1(CBr)Cn2c(nc3ccccc3c2=O)S1 (configuration not stated),inactive: -1.24%
3,Cc1nc2ccc3ccccc3c2s1.O=[N+]([O-])c1cc([N+](=O)[O-])c(O)c([N+](=O)[O-])c1,inactive: 1.26%
4,COc1ccccc1CNC(=O)COC(=O)C(O)(c1ccccc1)c1ccccc1,inactive: -2.64%
5,Cc1cccc(OCC(=O)OC2CN3CCC2CC3)c1 (configuration not stated),inactive: -0.701%
6,O=[As](O)(c1cccc(O)c1)c1cccc(O)c1,inactive: -1.78%
7,Cc1cc(C)cc(OP(C)(=O)Nc2ccc(C)cc2C)c1 (configuration not stated),inactive: 0.515%
8,CCOC(=O)c1ccc(NP(C)(=O)Oc2cc(C)cc(C)c2)cc1 (configuration not stated),inactive: 0.63%
9,O=[As](O)(O)c1cccnc1,inactive: 0.071%
10,COc1ccccc1OP(C)(=O)Nc1cccc(Br)c1 (configuration not stated),inactive: 0.755%
11,CS(=O)(=O)c1ccc(Cl)c(NC(=O)COC(=O)C(O)(c2ccccc2)c2ccccc2)c1,inactive: -0.677%
12,Cc1cc(C)cc(OP(C)(=O)Nc2ccccn2)c1 (configuration not stated),inactive: -2.4%
13,Cc1ccc(NCCc2c([N+](=O)[O-])cc([N+](=O)[O-])cc2[N+](=O)[O-])cc1,inactive: 1.56%
14,Nc1cccc2c([As](=O)(O)O)cccc12,inactive: -15.4%
15,Cc1ccc(C)c(NP(C)(=O)Oc2ccccc2)c1 (configuration not stated),inactive: -1.46%
16,CCCOP(=S)(Nc1nc(N)cc(=O)[nH]1)OCCC,inactive: 0.13%
17,CCOP1(=S)c2c(C)nn(CCC#N)c2N=C(c2ccccc2F)N1C (configuration not stated),inactive: -0.65%
18,O=P(Nc1nccs1)(Oc1ccccc1)Oc1ccccc1,inactive: -0.0524%
19,O=P(Nc1nccs1)(c1ccccc1)c1nc2ccccc2s1 (configuration not stated),inactive: -4.32%
20,N#CCCN(C(=O)COC(=O)C(O)(c1ccccc1)c1ccccc1)c1ccc(F)cc1,inactive: -0.354%
21,CCOP1(=S)c2c(C)nn(CCC#N)c2N=C(c2ccc(F)cc2)N1C (configuration not stated),inactive: -3.08%
22,CN(C(=O)Cc1ccccc1)[C@@H]1CC[C@]2(CCCO2)C[C@H]1N1CCCC1,inactive: -0.123%
23,O=[N+]([O-])c1ccc2c(c1)nnn2O,inactive: 0.222%
24,CC1=NCCc2c1[nH]c1ccccc21.O=[N+]([O-])c1cc([N+](=O)[O-])c(O)c([N+](=O)[O-])c1,inactive: -13.5%
25,CN(C(=O)Cc1ccc(Cl)c(Cl)c1)[C@H]1CC[C@@]2(CCCO2)C[C@@H]1N1CCCC1,inactive: -0.0922%
26,NC(=O)Nc1ccc([As](=O)(O)O)cc1,inactive: 0.534%
